biological target: human orexin 1 receptor (Homo sapiens, UniProt O43613); experiment: Human orexin 1 receptor radioligand binding; settings: CHO cells stably expressing human orexin 1 receptor; competitive radioligand binding, apparent Ki; read-out: hOX1 Ki
Method: (§1) Rat and Human Orexin 1 Receptor Radioligand Binding Studies
(§2) After centrifugation (2K×G, 5 min at 4° C.), the supernatant was aspirated and the pellets frozen and stored at −80° C. […] Each cell pellet from a 15 cm plate was resuspended in 10 mL, stored on ice, and homogenized for 45 sec prior to addition to the reactions. […] The final concentration of DMSO in the reactions is equal to or less than 0.1%. Total and nonspecific binding was determined in the absence and presence of 10 μM almorexant. The total volume of each reaction is 200 μL (20 μL of diluted compounds, 80 μL of [^3H]-(1-(5-(2-fluoro-phenyl)-2-methyl-thiazol-4-yl)-1-((S)-2-(5-phenyl-(1,3,4)oxadiazol-2-ylmethyl)-pyrrolidin-1-yl)-methanone) diluted in PBS and 100 μL of the cell suspension). […] The plates were washed 3 times by aspirating 30 ml PBS through the plates. Plates were dried in 55° C. oven for 60 min, scintillation fluid was added, and the radioactivity was counted on a Topcount (Packard).

Protein sequences, listed by entry. Tags and fused reporters are not part of them.
UniProt O43614, whole entry: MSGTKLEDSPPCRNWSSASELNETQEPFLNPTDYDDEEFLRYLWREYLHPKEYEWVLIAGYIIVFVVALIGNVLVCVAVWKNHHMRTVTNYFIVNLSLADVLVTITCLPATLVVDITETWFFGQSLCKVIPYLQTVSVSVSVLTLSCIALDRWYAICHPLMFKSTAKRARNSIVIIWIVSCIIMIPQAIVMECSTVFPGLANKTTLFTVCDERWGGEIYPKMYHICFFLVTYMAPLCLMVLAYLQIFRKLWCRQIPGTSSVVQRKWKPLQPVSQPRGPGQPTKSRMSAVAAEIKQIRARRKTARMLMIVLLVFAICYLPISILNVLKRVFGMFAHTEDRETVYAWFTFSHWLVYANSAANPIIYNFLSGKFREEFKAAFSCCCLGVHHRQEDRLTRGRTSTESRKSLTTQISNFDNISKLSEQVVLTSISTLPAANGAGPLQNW

Row | Structure (SMILES) | Ki [µM]
1 | CCOc1ncc2ccccc2c1C(=O)N1CC2CC(Oc3ccc(C(F)(F)F)cn3)C1C2 (racemic) [Example 8, (R/S)-(3-ethoxyisoquinolin-4-yl)(6-((5-(trifluoromethyl)pyridin-2-yl)oxy)-2-azabicyclo[2.2.1]heptan-2-yl)methanone] | 0.015
2 | O=C(c1ccc(F)cc1-c1ncccn1)N1CC2CC(Oc3ccc(C(F)(F)F)cn3)C1C2 (racemic) [Example 20, (R/S)-(4-fluoro-2-(pyrimidin-2-yl)phenyl)(-6-((5-(trifluoromethyl)pyridin-2-yl)oxy)-2-azabicyclo[2.2.1]heptan-2-yl)methanone] | 0.015
3 | O=C(c1ccc(F)cc1-c1ncccn1)N1C[C@H]2C[C@@H](Oc3ccc(C(F)(F)F)cn3)[C@@H]1C2 [Example 26, (4-fluoro-2-(pyrimidin-2-yl)phenyl)((1S,4R,6R)-6-((5-(trifluoromethyl)pyridin-2-yl)oxy)-2-azabicyclo[2.2.1]heptan-2-yl)methanone] | 0.015

biological target: rat orexin 1 receptor (Rattus norvegicus, UniProt P56718); experiment: Rat orexin 1 receptor radioligand binding; settings: HEK293 cells stably expressing rat orexin 1 receptor; competitive radioligand binding, apparent Ki; read-out: rOX1 Ki
Method: as §1, §2

Row | Structure (SMILES) | Ki [µM]
4 | CCOc1ncc2ccccc2c1C(=O)N1CC2CC(Oc3ccc(C(F)(F)F)cn3)C1C2 (racemic) [Example 8, (R/S)-(3-ethoxyisoquinolin-4-yl)(6-((5-(trifluoromethyl)pyridin-2-yl)oxy)-2-azabicyclo[2.2.1]heptan-2-yl)methanone] | 0.016

biological target: human orexin 2 receptor (Homo sapiens (Human), UniProt O43614); experiment: Human orexin 2 receptor radioligand binding; settings: HEK293 stably expressing human orexin 2 receptor; [3H]-EMPA competitive binding, apparent Ki; read-out: hOX2 Ki
Method: Human Orexin 2 Receptor Radioligand Binding Studies
as §2, with “sec just” for “sec”, “reactions. Competition binding experiments in 96 well polypropylene plates were performed using [^3H]-EMPA (Moraveck Corporation, specific activity=29.6 Ci/mmol), diluted to a 5 nM concentration in PBS (2 nM final concentration).” for “reactions.”, “[^3H]-EMPA” for “[^3H]-(1-(5-(2-fluoro-phenyl)-2-methyl-thiazol-4-yl)-1-((S)-2-(5-phenyl-(1,3,4)oxadiazol-2-ylmethyl)-pyrrolidin-1-yl)-methanone)”

Row | Structure (SMILES) | Ki [µM]
5 | O=C(c1ccccc1-n1nccn1)N1CC2CC(Oc3cnc(C(F)(F)F)cn3)C1C2 (racemic) [Example 1, (R/S)-(2-(2H-1,2,3-triazol-2-yl)phenyl)(6-((5-(trifluoromethyl)pyrazin-2-yl)oxy)-2-azabicyclo[2.2.1]heptan-2-yl)methanone] | 4.7
6 | O=C(c1cc(F)ccc1-n1nccn1)N1CC2CC(Oc3ccc(C(F)(F)F)cn3)C1C2 (racemic) [Example 14, (R/S)-(5-fluoro-2-(2H-1,2,3-triazol-2-yl)phenyl)(6-((5-(trifluoromethyl)pyridin-2-yl)oxy)-2-azabicyclo[2.2.1]heptan-2-yl)methanone] | 0.855
7 | O=C(c1cccc(F)c1-n1nccn1)N1CC2CC(Oc3ccc(C(F)(F)F)cn3)C1C2 (racemic) [Example 16, (R/S)-(3-fluoro-2-(2H-1,2,3-triazol-2-yl)phenyl)(6-((5-(trifluoromethyl)pyridin-2-yl)oxy)-2-azabicyclo[2.2.1]heptan-2-yl)methanone] | 1
8 | Cc1ccc(-n2nccn2)c(C(=O)N2CC3CC(Oc4ccc(C(F)(F)F)cn4)C2C3)n1 (single isomer, unassigned) [Example 23] | > 10
9 | Cc1cccc(C(=O)N2C[C@H]3C[C@@H](Oc4ccc(C(F)(F)F)cn4)[C@@H]2C3)c1-c1ncco1 [Example 32, (3-methyl-2-(oxazol-2-yl)phenyl)((1S,4R,6R)-6-((5-(trifluoromethyl)pyridin-2-yl)oxy)-2-azabicyclo[2.2.1]heptan-2-yl)methanone] | 0.143
10 | O=C(c1cccc(F)c1-n1nccn1)N1C[C@H]2C[C@@H](Oc3ccc(C(F)(F)F)cn3)[C@@H]1C2 [Example 35, (3-fluoro-2-(2H-1,2,3-triazol-2-yl)phenyl)((1S,4R,6R)-6-((5-(trifluoromethyl)pyridin-2-yl)oxy)-2-azabicyclo[2.2.1]heptan-2-yl)methanone] | 0.542
11 | O=C(c1cc(F)ccc1-n1nccn1)N1C[C@H]2C[C@@H](Oc3ccc(C(F)(F)F)cn3)[C@@H]1C2 [Example 43, (5-fluoro-2-(2H-1,2,3-triazol-2-yl)phenyl)((1S,4R,6R)-6-((5-(trifluoromethyl)pyridin-2-yl)oxy)-2-azabicyclo[2.2.1]heptan-2-yl)methanone] | 0.557
12 | O=C(c1c(F)cccc1-c1ncccn1)N1C[C@H]2C[C@@H](Oc3ccc(Br)cn3)[C@@H]1C2 [Example 47, ((1S,4R,6R)-6-((5-bromopyridin-2-yl)oxy)-2-azabicyclo[2.2.1]heptan-2-yl)(2-fluoro-6-(pyrimidin-2-yl)phenyl)methanone] | 0.503
13 | O=C(c1ccccc1-n1nccn1)N1C[C@H]2C[C@@H](Nc3ccc(C(F)(F)F)cn3)[C@@H]1C2 [Example 53, (2-(2H-1,2,3-triazol-2-yl)phenyl)((1S,4S,6R)-6-((5-(trifluoromethyl)pyridin-2-yl)amino)-2-azabicyclo[2.2.1]heptan-2-yl)methanone] | 0.165

Reference: patent publication US8969352B2, “Substituted 2-azabicycles and their use as orexin receptor modulators” (Janssen Pharmaceutica NV, priority 2013, dated 2015)
